From patent US9850283B2, “Macrocyclic inhibitors of the PD-1/PD-L1 and CD80(B7-1)/PD-L1 protein/protein interactions” (BRISTOL-MYERS SQUIBB COMPANY, priority 2013, dated 2017) come the findings set out here.

By UniProt entry, the sequences of proteins in these tests, tags left out. Chains listed by the source or under a name are the forms on record and can include a tag or linker.
UniProt Q9NZQ7, with tags, fused parts or gaps: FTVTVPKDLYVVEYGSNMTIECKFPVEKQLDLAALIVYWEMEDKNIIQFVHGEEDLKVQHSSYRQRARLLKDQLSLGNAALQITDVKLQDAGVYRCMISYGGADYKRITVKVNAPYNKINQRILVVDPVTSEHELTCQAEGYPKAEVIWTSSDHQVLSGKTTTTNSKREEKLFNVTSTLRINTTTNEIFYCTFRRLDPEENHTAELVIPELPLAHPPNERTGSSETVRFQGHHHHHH

Usually IC50 stands for the concentration needed to halve the response being measured. Low readings indicate greater potency in that assay, high ones weaker potency in that assay.

This test deals with T1, Human PD-L1/PD-1 (Homo sapiens, UniProt Q9NZQ7).
T1 construct: made in house; host or cells: HEK293T
As to the kind of experiment: HTRF PD-1-Ig/PD-L1-His binding assay (human PD-L1). The settings on record: Table 8, Compound No. 1 variant macrocyclic peptides. From the text:
The ability of the macrocyclic peptides of the present disclosure to bind to PD-L1 was investigated using a PD-1/PD-L1 Homogenous Time-Resolved Fluorescence (HTRF) binding assay.
Homogenous Time-Resolved Fluorescence (HTRF) Assays of Binding of Soluble PD-1 to Soluble PD-L1. Soluble PD-1 and soluble PD-L1 refers to proteins with carboxyl-end truncations that remove the transmembrane-spanning regions and are fused to heterologous sequences, specifically the Fc portion of the human immunoglobuling G sequence (Ig) or the hexahistidine epitope tag (His). All binding studies were performed in an HTRF assay buffer consisting of dPBS supplemented with 0.1% (w/v) bovine serum albumin and 0.05% (v/v) Tween-20. […] PD-L1 fusion proteins from either human, cynomologous macaques, or mouse were used. HTRF detection was achieved using europium crypate-labeled anti-Ig monoclonal antibody (1 nM final) and allophycocyanin (APC) labeled anti-His monoclonal antibody (20 nM final). Antibodies were diluted in HTRF detection buffer and 5 μl was dispensed on top of binding reaction.
(In general: In TR-FRET formats the signal depends on donor and acceptor labels being close together.)

`CCCC[C@H]1C(=O)N(C)[C@@H](CCCC)C(=O)N[C@@H](CCCNC(=N)N)C(=O)N[C@H](C(=O)NCC(N)=O)CSCC(=O)N[C@@H](Cc2ccccc2)C(=O)N(C)[C@@H](C)C(=O)N[C@@H](CC(N)=O)C(=O)N2CCC[C@H]2C(=O)N[C@@H](Cc2cnc[nH]2)C(=O)N[C@@H](CC(C)C)C(=O)N[C@@H](CO)C(=O)N[C@@H](Cc2c[nH]c3ccccc23)C(=O)N[C@@H](CO)C(=O)N[C@@H](Cc2c[nH]c3ccccc23)C(=O)N1C` [Compound No. 57]: the IC50 was found to be 9 nM.
